Experimental data taken from patent US5563176A (priority 1994, dated 1996).

Experiments:
[1] = tested on: CEM mdr variants; experiment: resistance of CEM mdr variants; conditions: previous studies
[2] = tested on: solid tumor systems; conditions: NCI DCT; cited from earlier work

For CC1=C2C(=C[C@@](C)(CO)C2O)C(=O)[C@](C)(O)C12CC2 (some centres unmarked) [Illudin S], the “resistance of CEM mdr variants” value [1] was “not resistant”.

In the case of CC1=C2C(=CC(C)(C)C2O)C(=O)[C@](C)(O)C12CC2 (some centres unmarked) [Illudin M, reference compound], the therapeutic index [2] is given as “low therapeutic index”.
